The term pIC50 denotes the negative decadic logarithm of the IC50, by convention in mol/L. A higher pIC50 goes with a small IC50.

The target of the assay is T1, Thiosulfate sulfurtransferase (Homo sapiens, UniProt Q16762).
T1 sequence (Q16762 whole entry): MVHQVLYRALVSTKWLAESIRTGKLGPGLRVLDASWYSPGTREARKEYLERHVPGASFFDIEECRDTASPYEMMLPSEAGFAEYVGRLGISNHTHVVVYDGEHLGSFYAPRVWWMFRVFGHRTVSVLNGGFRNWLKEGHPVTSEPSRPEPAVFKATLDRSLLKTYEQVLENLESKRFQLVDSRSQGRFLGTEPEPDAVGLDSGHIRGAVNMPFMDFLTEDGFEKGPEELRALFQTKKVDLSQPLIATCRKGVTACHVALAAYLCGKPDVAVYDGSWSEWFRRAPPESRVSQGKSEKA
In kind it is ADME.

pIC50: −log10 of the molar value.
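Further: native rhodanese of unspecified species, enzyme activity read after 45 min by spectrophotometric detection of Fe(SCN)3 colour, IC50 reflects activity reduction.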

With `C=C1CC[C@H](O)C/C1=C/C=C1\CCC[C@]2(C)[C@@H]([C@H](C)/C=C/[C@H](C)C(C)C)CC[C@@H]12` [ERGOCALCIFEROL], the pIC50 was 4.03.

The values are drawn from ChEMBL document CHEMBL4392822, “HSP60/10 chaperonin systems are inhibited by a variety of approved drugs, natural products, and known bioactive molecules” (Bioorg Med Chem Lett, 2019).
